Values quoted from earlier work as cited in paper PMC12240781 (Frontiers in Pharmacology, 2025).

Settings: ranging from undetectable; ref Chan et al., 1990; cited from earlier work

6-thioguanine nucleotides [6-TGNs]
Levels of 6-TGNs: ≤ 413 pmol per 8 × 10^8 red blood cells
